# Binding of CDR-mutated scFvs to a peptide of the spike HR2 region

Binding partner: SARS-CoV-2 spike HR2 peptide, sequence PDVDLGDISGINAS.

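The starting antibody came from a phage panning campaign against this peptide. This is the validation round: designs drawn from the data on random variants, tested in the same kind of assay. Several design methods are mixed in this list. AlphaSeq pools MATa yeast showing the antibodies with MATalpha yeast showing the peptide. Pairs that bind mate more often; barcode pairs of the diploids are counted by sequencing. Each replicate has its own calibration line, from reference interactions of the BCL2 family. The assay was run in six technical replicates.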

Parent: Ab-14, a human scFv built as VH, a (GGGGS)3 linker, VL. Only the CDRs of the light chain vary.
VH: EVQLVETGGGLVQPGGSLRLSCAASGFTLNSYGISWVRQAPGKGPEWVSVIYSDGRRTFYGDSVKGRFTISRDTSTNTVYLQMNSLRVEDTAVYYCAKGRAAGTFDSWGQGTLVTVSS
VL: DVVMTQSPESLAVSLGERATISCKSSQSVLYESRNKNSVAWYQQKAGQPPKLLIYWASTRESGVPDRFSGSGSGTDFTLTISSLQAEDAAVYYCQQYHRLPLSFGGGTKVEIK

Substitutions are numbered in sequence along the VL above, starting at 1 (not Kabat).
Variants here have at most six changes.
Values are apparent Kd, the geometric mean of the replicates that gave a signal; lower means stronger binding.
"nd" marks a missing value. The strain was present, yet no cells mated with the target were sequenced in any replicate, which points to weak or no binding.
The range of this assay differs from that of the first round, and the authors advise against merging the two.
Of ten entries with the parent sequence, four were seen in most replicates (averages 2.2 nM to 240 nM), three in one and three in none, so single entries are noisy.
Background: pairings of all light chain designs with three empty control strains gave a value in 4% of cases (median 430 nM, 5th percentile 38 nM). Values in that range, when seen in few replicates, are hard to tell from nonspecific mating.
In the paper, a design with two or fewer of six values counts as a poor binder.

With S25F S26G S28G K36W W56G the result was 1.1 nM (6 of 6 replicates).
With S26G Q27C S28G W56G the result was 970 pM (6 of 6 replicates).
With V29F K36V W56G S62V the result was 490 pM (6 of 6 replicates).
With S25L V29W S38N W56E T59Q the result was 430 pM (6 of 6 replicates).
With V29E K36F L100N the result was 490 nM (1 of 6 replicates).
With S26D R34T N35H W56G P101V the result was 5.3 nM (6 of 6 replicates).
With S25V V29H V39L W56H the result was 2.2 nM (6 of 6 replicates).
With Y31L the result was 80 nM (5 of 6 replicates).
With S25L V29W W56E E61L the result was 830 pM (6 of 6 replicates).
With V29F K36V W56G E61D the result was 1.4 nM (6 of 6 replicates).
With S25L S26Q V29Q K36C W56N the result was 1.1 nM (6 of 6 replicates).
With S25L S26P W56E S62M the result was 1.4 nM (6 of 6 replicates).
With S25L W56N S58G the result was 300 pM (6 of 6 replicates).
With S25L Q27F V29C N35M W56N E61Y the result was 5.7 nM (6 of 6 replicates).
With S28G S33M the result was 63 nM (2 of 6 replicates).
With Q27F K36A Q96E the result was nd (0 of 6 replicates).
With S25F N35D S38G W56H the result was 480 pM (6 of 6 replicates).
With V29C R34P S58T Q96C the result was nd (0 of 6 replicates).
With S25C V29G the result was 80 nM (6 of 6 replicates).
With S25L S26P V29Q W56H the result was 970 pM (6 of 6 replicates).
With H98M S103T the result was nd (0 of 6 replicates).
With S28V V29Y W56S the result was 16 nM (3 of 6 replicates).
With S25L S26E Q27F S28L V29D W56E the result was 820 pM (6 of 6 replicates).
With V29F K36F W56E the result was nd (0 of 6 replicates).
With S25F L30D W56D the result was 590 pM (6 of 6 replicates).
With S25V V29Y W56N A57G the result was 220 pM (6 of 6 replicates).
With V29D E32A the result was 7.0 nM (6 of 6 replicates).
With S25Y S26A V29M K36F S38N W56A the result was 3.6 nM (2 of 6 replicates).
With E32D W56C the result was 850 nM (1 of 6 replicates).
With S25M Q27W Y31F W56D the result was 630 pM (6 of 6 replicates).
With K24H Q27P W56N S62D S103Q the result was 800 pM (6 of 6 replicates).
With S25L V29F K36V W56G the result was 640 pM (6 of 6 replicates).
With S25I V29M W56A S62T Q96D R99G the result was 7.5 nM (6 of 6 replicates).
With S25L L30W Y31M W56N the result was 950 pM (6 of 6 replicates).
With S25L V29D L30D W56N the result was 10 nM (6 of 6 replicates).
With S25I Y31F W56S P101Y the result was nd (0 of 6 replicates).
With S25L V29Q W56E E61L the result was 720 pM (6 of 6 replicates).

Excerpt, the first 2 entries:

S25F S26G S28G K36W W56G: 1.1 nM (6 of 6 replicates).
S26G Q27C S28G W56G: 970 pM (6 of 6 replicates).

Data: MIT Lincoln Laboratory AlphaSeq set, Li et al. 2023, doi:10.1038/s41467-023-39022-2, as distributed in FLAb.